The test system of one assay is BT474. As to the kind of experiment: In vitro inhibition of proliferation assay (WST-8), BT474. The note with it: 72 hr, read-out: IC50 Values after 72 hr drug treatment, BT474. It counts as cell-based. On the procedure: (§1) At day 1, the cells were seeded. The media was aspirated and the T-225 culture flasks of cells was rinsed with 30 mL PBS −/. PBS was aspirated and 6 mL of 0.25% Trypsin-EDTA was added to each flask. The flasks were incubated at 37C, 5% CO2 for 2-5 minutes. Adherent cells were dislodged by hitting flask and trypsin was neutralized by adding 14 mL culture medium. The cell suspension was mixed and transferred to a 50 mL conical tube. The cells were spun down at 1200 rpm, 5 min, room temperature. The resultant cell pellet was resuspended in 12 mL of culture medium. The cells were counted in a hemacytometer. Cells were seeded at appropriate cell densities into 96-well flat-bottom, clear plates and incubated overnight at 37° C., 5% CO2 to allow cells to attach. Plating volume was 80 uL/well. 80 uL/well of culture medium was utilized as the “no cell” control.
(§2) Cell plating density examples include: • BT474 (high Her2)—20,000 cells/well in F12k/DMEM (50/50), 10% FBS, P/S • MDA-MB-468 (Her2 negative)—6,000 cells/well in F12k/DMEM (50/50), 10% FBS, P/S • HCC1954—5,000 cells/well in RPMI 1640, 10% FBS, P/S • SKOV-3—6,000 cells/well in RPMI 1640, 10% FBS, P/S • HT29—20,000 cells/well in McCoy's 5A, 10% FBS, P/S
(§3) At day 2, the test samples were added to the cells. The test samples were diluted in culture medium to a 9× stock concentration in Column 2 of a round-bottom 96-well plate. 3× serial dilutions were made from Column 2 to Column 11 with a multi-channel pipettor. 10 uL/well of the above samples was added in duplicate to the appropriate wells of the seeded plate. The total volume in the wells was about 90 uL/well. 10 uL/well of culture medium was added to avoid edge effects for sample wells. Media Control wells were included in the inner wells where no sample was added (just 10 uL/well of culture medium) to be used in proliferation calculations. The plates were incubated at 37° C., 5% CO2 for 72 hrs.
(§4) At day 5, proliferation readout occurred. […] The plates were measured for absorbance at OD 450 nm. […]

The subject of the next assay is MDA-MB-175. Description: In vitro inhibition of proliferation assay (WST-8), MDA-MB-175. As to conditions: Data Set I, experiment Sep. 13, 2010; 72 hr; read-out: IC50 Values after 72 hr drug treatment, MDA-MB-175. It counts as cell-based. On the procedure:
as §1
(§5) At day 2, the test samples were added to the cells. The test samples were diluted in culture medium to a 9× stock concentration in Column 2 of a round-bottom 96-well plate. 3× serial dilutions were made from Column 2 to Column 11 with a multi-channel pipettor. 10 uL/well of the above samples was added in duplicate to the appropriate wells of the seeded plate. The total volume in the wells was about 90 uL/well. […]
as §4
(In general: Tetrazolium dyes change colour on reduction, which living cells bring about.)

The subject of assay [1] is HCC1954 (human breast carcinoma) xenograft. As to the kind of experiment: In vivo anti-tumor efficacy in HCC1954 xenograft model. The arrangement: species or system SCID-bg mice. The note with it: day 28. Here is the method: HCC1954 (human breast carcinoma) cells were obtained from American Type Culture Collection (Manassas, Va.) and cultured in RPMI+10% FBS, 37° C., 5% CO2 until 80% confluent. Cells were harvested by trypsinization and suspended in PBS at 1×10^8 cells/mL.
Female, SCID-beige mice, 5-8 weeks old, were obtained from Charles River Laboratories. HCC1954 cells (human, breast carcinoma, ATCC, # CRL-2338) were mixed 1:1 with Matrigel (BD Biosciences, Bedford Mass.) and injected subcutaneously into the mice. When tumors reached an average size of 100-200 mm^3, mice were sorted into groups of 9-10 mice each. Caliper measurements were taken twice weekly until the end of the study. To estimate tumor volume, two orthogonal diameters were measured with calipers and the values entered into the formula, (L×W×W)/2=V, (where W=the shortest diameter, L=the longest diameter and V=volume), to obtain an estimated volume. The tumor volume was converted to tumor weight in the Excel data file by assuming 1 mm^3=1 mg. Endpoint was based on a study design of tumor growth inhibition (TGI). When the mean tumor volume of the control group reached approx. 1,000 mm^3 all mice were euthanized or day 28, whichever came first.
Mice were given a single IV injection (tail vein) on day 1 of dosing. Test article was dissolved at 4 mg/mL, 2 mg/mL and 0.66 mg/mL and administered at a dose volume of 5 mL/kg to deliver 20, 10 and 3.3 mg/kg. Test articles were: Herceptin® clinical grade (Trastuzumab), Her2-HS122-NCD1 (Ab:Drug ratio=1:2, non-cleavable linker), and Her2-HS122/LK145-HCD1 (Ab:Drug ratio=1:4, cleavable linker) See FIG. 16.
HCC1954 cells were utilized for this study with 10^7 cells/mouse in Matrigel, SC in the right flank. Mice were SCID-bg female 4-8 weeks. Grouping was performed at day 5 after cell implantation (tumors ˜100 mm^3): sorted into 11 groups of 10 mice each. A single IV dose was given on day 1 of dosing with each compound at 3 dose levels, 20 mg/kg, 10 mg/kg and 3.3 mg/kg. Tumor volume was monitored until the endpoint was reached (1,000 mm^3 or 60 days). (FIG. 10) Paclitaxel 25 mg/kg, IV, qod×5 was employed as the control chemotherapy. The vehicle=50 mM histamine, 0.1 M NaCl, 5% trehalose, pH 6. Herceptin® clinical grade (Trastuzumab), Her2-HS122-NCD1 (non-cleavable linker) and Her2-HS122/LK145-HCD1 (cleavable linker) were tested. (FIGS. 11 and 12)

For another assay, the system named is MDA-MB-468. As to the kind of experiment: In vitro inhibition of proliferation assay (WST-8), MDA-MB-468. It counts as cell-based. The note with it: Data Set II, experiment Oct. 8, 2010; 72 hr; read-out: IC50 Values after 72 hr drug treatment, MDA-MB-468. On the procedure:
as §1, §2
(§6) At day 2, the test samples were added to the cells. […]
as §4

The next assay concerns HCC1954. As to the kind of experiment: In vitro inhibition of proliferation assay (WST-8), HCC1954. It counts as cell-based, human. As to conditions: 72 hr, read-out: IC50 Values after 72 hr drug treatment, HCC1954. Here is the method:
as §1, §2, §6, §4

A further assay concerns SKOV-3. Description: In vitro inhibition of proliferation assay (WST-8), SKOV-3. It counts as cell-based. The note with it: 72 hr, read-out: IC50 Values after 72 hr drug treatment, SKOV-3. Here is the method:
as §1, §2, §3, §4

The test system of a further assay is LS513. Description: In vitro inhibition of proliferation assay (WST-8), LS513. It counts as cell-based. The note with it: Data Set I, experiment Sep. 4, 2010; 72 hr; read-out: IC50 Values after 72 hr drug treatment, LS513. On the procedure:
as §1, §5, §4

The test system of the next assay is NCI-N87. As to the kind of experiment: In vitro inhibition of proliferation assay (WST-8), NCI-N87. It counts as cell-based. The note with it: Data Set I, experiment Sep. 4, 2010; 72 hr; read-out: IC50 Values after 72 hr drug treatment, NCI-N87. Here is the method: as §1, §5, §4
A further assay has as its system HT29. Description: In vitro inhibition of proliferation assay (WST-8), HT29. It counts as cell-based. The note with it: Data Set II, experiment Sep. 24, 2010; 72 hr; read-out: IC50 Values after 72 hr drug treatment, HT29. On the procedure: as §1, §2, §6, §4
Another assay deals with ZR-75-30. As to the kind of experiment: In vitro inhibition of proliferation assay (WST-8), ZR-75-30. It counts as cell-based. The note with it: Data Set I, experiment Sep. 4, 2010; 72 hr; read-out: IC50 Values after 72 hr drug treatment, ZR-75-30. On the procedure: as §1, §5, §4
Where [2] appears, read: Data Set I, experiment Sep. 4, 2010.
Where [3] appears, read: Data Set I, experiment Sep. 13, 2010.
Setting [4] is: Data Set II, experiment Oct. 8, 2010.

Read-outs that look alike come from different tables or passages of the source.

This note sets out measurements from patent US20150080559A1, “Compositions Containing, Methods Involving, and Uses of Non-Natural Amino Acid Linked Dolastatin Derivatives” (priority 2011, published 2015).

Broadly, the IC50 is the concentration needed to halve the response being measured.

As for “Herceptin: humanized monoclonal antibody that binds to the domain IV of the extracellular segment of the HER2/neu receptor”, the IC50 in the assay on BT474 (setting [2]) was more than 300 nM; in the assay with BT474 (setting [3]) it was more than 300 nM; in the assay with BT474 (Data Set II, experiment Sep. 24, 2010), more than 300 nM; with MDA-MB-175 it was more than 300 nM; in the assay with MDA-MB-468, more than 300 nM; in the assay with HCC1954 (setting [2]), more than 300 nM. The IC50 in the assay with HCC1954 (setting [4]), in the assay with SKOV-3 (setting [2]), in the assay with SKOV-3 (setting [3]), with SKOV-3 (setting [4]), with LS513 and in the assay on NCI-N87 was more than 300 nM throughout. In addition, the IC50 with HT29 and in the assay on ZR-75-30 was more than 300 nM each time. Further, the “Median Tumor Volume” value in [1] (3.3 mg/kg iv qd × 1) is 405 mm3; in assay [1] (10 mg/kg iv qd × 1) it was 446 mm3; in [1] (20 mg/kg iv qd × 1) it was 385 mm3. For the same substance, the entries for the “T/C (Treated/Control)” value in assay [1] (3.3 mg/kg iv qd × 1), in assay [1] (10 mg/kg iv qd × 1) and in [1] (20 mg/kg iv qd × 1) were 0.833, 0.918 and 0.792, respectively.
